# According to paper PMC9596378, “Discovery and molecular basis of subtype-selective cyclophilin inhibitors” (Nature Chemical Biology, 2022):
# The chains behind the UniProt entries cited, without tags or fusion partners. Residues count along the entry.
# UniProt O43447, whole entry: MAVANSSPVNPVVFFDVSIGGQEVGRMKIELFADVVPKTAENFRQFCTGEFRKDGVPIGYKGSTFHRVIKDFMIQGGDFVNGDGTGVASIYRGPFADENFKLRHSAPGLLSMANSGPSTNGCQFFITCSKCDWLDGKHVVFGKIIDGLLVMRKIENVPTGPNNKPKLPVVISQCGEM
# UniProt Q96BP3, 473-646 limits assumed: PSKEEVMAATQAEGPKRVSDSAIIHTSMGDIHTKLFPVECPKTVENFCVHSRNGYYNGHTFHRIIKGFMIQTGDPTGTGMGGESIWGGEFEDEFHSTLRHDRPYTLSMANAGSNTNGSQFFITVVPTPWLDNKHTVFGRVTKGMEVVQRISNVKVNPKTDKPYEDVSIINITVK
# UniProt P30405, 45-207 limits assumed: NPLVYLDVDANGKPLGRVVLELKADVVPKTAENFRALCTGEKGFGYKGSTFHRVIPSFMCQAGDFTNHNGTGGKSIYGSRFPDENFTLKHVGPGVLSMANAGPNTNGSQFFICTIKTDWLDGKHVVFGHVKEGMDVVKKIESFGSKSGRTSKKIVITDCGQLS
# UniProt Q08752, 1-183 limits assumed: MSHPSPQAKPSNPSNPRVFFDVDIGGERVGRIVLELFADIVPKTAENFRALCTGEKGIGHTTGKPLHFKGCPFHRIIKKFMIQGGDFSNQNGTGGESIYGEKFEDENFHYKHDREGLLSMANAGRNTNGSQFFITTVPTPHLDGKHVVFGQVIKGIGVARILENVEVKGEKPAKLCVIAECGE
# UniProt P62937, whole entry: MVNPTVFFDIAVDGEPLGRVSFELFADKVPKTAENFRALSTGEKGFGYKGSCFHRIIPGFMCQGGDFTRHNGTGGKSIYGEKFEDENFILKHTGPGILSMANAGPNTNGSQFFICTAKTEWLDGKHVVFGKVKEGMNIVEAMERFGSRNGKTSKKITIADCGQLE
# UniProt P45877, 24-212 limits assumed: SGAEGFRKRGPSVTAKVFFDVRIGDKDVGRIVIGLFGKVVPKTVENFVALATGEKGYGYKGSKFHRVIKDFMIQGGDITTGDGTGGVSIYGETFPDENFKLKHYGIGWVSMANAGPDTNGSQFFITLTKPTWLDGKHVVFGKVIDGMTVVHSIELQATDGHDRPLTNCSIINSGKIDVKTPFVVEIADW
# UniProt Q13427, 1-179 limits assumed: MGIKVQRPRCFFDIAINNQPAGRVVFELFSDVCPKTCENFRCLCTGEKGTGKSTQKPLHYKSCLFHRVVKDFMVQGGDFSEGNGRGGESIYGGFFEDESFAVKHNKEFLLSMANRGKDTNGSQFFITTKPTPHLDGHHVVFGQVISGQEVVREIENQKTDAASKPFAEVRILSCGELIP
# UniProt Q9UNP9, 131-301 limits assumed: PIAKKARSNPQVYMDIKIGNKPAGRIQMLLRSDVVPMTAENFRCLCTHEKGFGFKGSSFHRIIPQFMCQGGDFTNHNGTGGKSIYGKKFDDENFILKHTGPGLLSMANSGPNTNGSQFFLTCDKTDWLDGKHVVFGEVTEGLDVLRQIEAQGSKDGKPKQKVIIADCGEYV
# UniProt P23284, 34-216 limits assumed: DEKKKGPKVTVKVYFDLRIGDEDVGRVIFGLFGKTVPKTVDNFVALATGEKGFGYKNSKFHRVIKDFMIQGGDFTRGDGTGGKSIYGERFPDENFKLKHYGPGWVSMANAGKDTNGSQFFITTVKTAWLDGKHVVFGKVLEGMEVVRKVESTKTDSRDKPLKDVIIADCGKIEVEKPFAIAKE
# UniProt P30414, 7-179 limits assumed: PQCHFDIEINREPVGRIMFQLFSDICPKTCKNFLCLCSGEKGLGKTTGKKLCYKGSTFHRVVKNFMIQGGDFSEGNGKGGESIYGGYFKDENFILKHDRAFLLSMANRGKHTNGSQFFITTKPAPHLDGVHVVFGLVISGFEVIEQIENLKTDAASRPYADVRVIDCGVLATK
# UniProt Q9Y3C6, whole entry: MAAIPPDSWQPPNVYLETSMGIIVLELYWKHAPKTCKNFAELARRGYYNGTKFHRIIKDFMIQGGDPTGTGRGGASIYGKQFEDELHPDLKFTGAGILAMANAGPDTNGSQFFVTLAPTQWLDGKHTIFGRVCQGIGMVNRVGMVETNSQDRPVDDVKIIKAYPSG
# Like-named read-outs stand apart in the source and are kept apart here.
# Columns and labels:
# CypH = CypH (Homo sapiens, UniProt O43447); test: Chymotrypsin coupled prolyl-isomerase assay; format: biochemical
# PPWD1 = PPWD1 (Homo sapiens, UniProt Q96BP3); test: Chymotrypsin coupled prolyl-isomerase assay; format: biochemical
# CypD = CypD (Homo sapiens, UniProt P30405); test: Chymotrypsin coupled prolyl-isomerase assay; format: biochemical; settings: read-out: Wild-Type Cyclophilin Prolyl Isomerase Inhibition IC50 Values, CypD; wild-type CypD
# Cyp40 = Cyp40 (Homo sapiens, UniProt Q08752); test: Chymotrypsin coupled prolyl-isomerase assay; format: biochemical
# CypA = CypA (Homo sapiens, UniProt P62937); test: Chymotrypsin coupled prolyl-isomerase assay; format: biochemical
# CypC = CypC (Homo sapiens, UniProt P45877); test: Chymotrypsin coupled prolyl-isomerase assay; format: biochemical
# CypG = CypG (Homo sapiens, UniProt Q13427); test: Chymotrypsin coupled prolyl-isomerase assay; format: biochemical
# CypE = CypE (Homo sapiens, UniProt Q9UNP9); test: Chymotrypsin coupled prolyl-isomerase assay; format: biochemical; settings: read-out: Wild-Type Cyclophilin Prolyl Isomerase Inhibition IC50 Values, CypE; wild-type CypE
# CypB = CypB (Homo sapiens, UniProt P23284)
# NKTR = NKTR (Homo sapiens, UniProt P30414); test: Chymotrypsin coupled prolyl-isomerase assay; format: biochemical
# PPIL1 = PPIL1 (Homo sapiens, UniProt Q9Y3C6); test: Chymotrypsin coupled prolyl-isomerase assay; format: biochemical
# [1] = read-out: Wild-Type Cyclophilin Prolyl Isomerase Inhibition IC50 Values, CypH, wild-type CypH
# [2] = read-out: Wild-Type Cyclophilin Prolyl Isomerase Inhibition IC50 Values, PPWD1, wild-type PPWD1
# [3] = read-out: Wild-Type Cyclophilin Prolyl Isomerase Inhibition IC50 Values, Cyp40, wild-type Cyp40
# [4] = read-out: Wild-Type Cyclophilin Prolyl Isomerase Inhibition IC50 Values, CypA, wild-type CypA
# [5] = read-out: Wild-Type Cyclophilin Prolyl Isomerase Inhibition IC50 Values, CypC, wild-type CypC
# [6] = read-out: Wild-Type Cyclophilin Prolyl Isomerase Inhibition IC50 Values, CypG, wild-type CypG
# [7] = read-out: Wild-Type Cyclophilin Prolyl Isomerase Inhibition IC50 Values, CypB, wild-type CypB
# [8] = read-out: Wild-Type Cyclophilin Prolyl Isomerase Inhibition IC50 Values, NKTR, wild-type NKTR
# [9] = read-out: Wild-Type Cyclophilin Prolyl Isomerase Inhibition IC50 Values, PPIL1, wild-type PPIL1
# [10] = read-out: IC50 CypH, prolyl-isomerase inhibition, 5 nM cyclophilin
# [11] = read-out: IC50 PPWD1, prolyl-isomerase inhibition, 5 nM cyclophilin
# [12] = read-out: IC50 CypG, prolyl-isomerase inhibition, 5 nM cyclophilin
# [13] = read-out: IC50 NKTR, prolyl-isomerase inhibition, 5 nM cyclophilin
Compound,IC50 (CypH; [1]) [nM],IC50 (PPWD1; [2]) [nM],IC50 (CypD) [nM],IC50 (Cyp40; [3]) [nM],IC50 (CypA; [4]) [nM],IC50 (CypC; [5]) [nM],IC50 (CypG; [6]) [nM],IC50 (CypE) [nM],IC50 (CypB; [7]) [nM],IC50 (NKTR; [8]) [nM],IC50 (PPIL1; [9]) [nM],IC50 (CypH; [10]) [nM],IC50 (PPWD1; [11]) [nM],IC50 (Cyp40) [nM],"IC50 (CypC; read-out: IC50 CypC, prolyl-isomerase inhibition, 5 nM cyclophilin) [nM]",IC50 (CypG; [12]) [nM],IC50 (NKTR; [13]) [nM],"IC50 (CypA; read-out: IC50 CypA, prolyl-isomerase inhibition, 5 nM cyclophilin) [nM]","IC50 (CypB; read-out: IC50 CypB, prolyl-isomerase inhibition, 5 nM cyclophilin) [nM]","IC50 (PPIL1; read-out: IC50 PPIL1, prolyl-isomerase inhibition, 5 nM cyclophilin) [nM]"
NCCOCCNC(=O)[C@@H]1CCNC(=O)/C=C/C(=O)N2CCC[C@](Cc3ccccc3)(C2)C(=O)N[C@@H](Cc2ccc(-c3ccc(C(N)=O)cc3)cc2)C(=O)NCc2ccccc2CC(=O)N1,40000,3000,110,260,700,1900,40000,400,220,> 100000,300,,,,,,,,,
NCCOCCNC(=O)[C@@H]1CCNC(=O)/C=C/C(=O)N2CCC[C@](Cc3ccccc3)(C2)C(=O)N[C@@H](Cc2ccc(-c3ccc4oc(C(=O)O)cc4c3)cc2)C(=O)NCc2ccccc2CC(=O)N1,50000,27000,40,,700,16000,17000,170,160,30000,340,50000,27000,3000,16000,17000,30000,,,
NCCOCCNC(=O)[C@@H]1CCNC(=O)/C=C/C(=O)N2CCC[C@](Cc3ccccc3)(C2)C(=O)N[C@@H](Cc2ccc(-c3ccncc3)cc2)C(=O)NCc2ccccc2CC(=O)N1,60000,6000,330,,2500,1500,> 100000,3000,400,> 100000,1200,60000,,900,,,,,,
COc1ccc(-c2ccc(C[C@@H]3NC(=O)[C@]4(Cc5ccccc5)CCCN(C4)C(=O)/C=C/C(=O)NCC[C@@H](C(=O)NCCOCCN)NC(=O)Cc4ccccc4CNC3=O)cc2)cc1,90000,800,120,150,1100,1000,1900,390,150,5000,350,90000,,,,,5000,,,
NCCOCCNC(=O)[C@@H]1CCNC(=O)/C=C/C(=O)N2CCC[C@](Cc3ccccc3)(C2)C(=O)N[C@@H](Cc2ccc(-c3ccc(S(=O)(=O)CC(=O)O)cc3)cc2)C(=O)NCc2ccccc2CC(=O)N1,> 50000,> 50000,190,,3000,37000,40000,800,400,> 50000,1000,,,4000,,40000,,,,
CC(=O)c1cccc(-c2ccc(C[C@@H]3NC(=O)[C@]4(Cc5ccccc5)CCCN(C4)C(=O)/C=C/C(=O)NCC[C@@H](C(=O)NCCOCCN)NC(=O)Cc4ccccc4CNC3=O)cc2)c1,40000,4100,210,300,350,700,> 100000,900,130,> 100000,1100,,,,,,,,,
NCCOCCNC(=O)[C@@H]1CCNC(=O)/C=C/C(=O)N2CCC[C@](Cc3ccccc3)(C2)C(=O)N[C@@H](Cc2ccc(-c3ccc(C(=O)C(=O)O)cc3)cc2)C(=O)NCc2ccccc2CC(=O)N1,> 50000,30000,230,,1700,16000,> 50000,1200,400,> 50000,800,,30000,2300,,,,,,
NC(=O)[C@H]1CCNC(=O)/C=C/C(=O)N2CCC[C@@](Cc3ccccc3)(C2)C(=O)N[C@H](Cc2ccc(-c3ccc(C(CC(=O)O)CC(=O)O)cc3)cc2)C(=O)NCc2ccccc2CC(=O)N1,> 50000,> 50000,> 50000,,> 50000,> 50000,> 50000,> 50000,> 50000,> 50000,> 50000,,,> 50000,,,,,,
NCCOCCNC(=O)[C@@H]1CCNC(=O)/C=C/C(=O)N2CCC[C@](Cc3ccccc3)(C2)C(=O)N[C@@H](Cc2ccc(-c3ccc4c(C(=O)O)coc4c3)cc2)C(=O)NCc2ccccc2CC(=O)N1,> 25000,40000,110,,1500,13000,> 25000,250,260,> 25000,320,,40000,5000,,,,,,
Cc1cc(CCC(=O)O)ccc1-c1ccc(C[C@@H]2NC(=O)[C@]3(Cc4ccccc4)CCCN(C3)C(=O)/C=C/C(=O)NCC[C@@H](C(=O)NCCOCCN)NC(=O)Cc3ccccc3CNC2=O)cc1,> 50000,> 50000,270,5000,2700,8000,> 50000,1100,1100,> 50000,3000,,,,,,,,,
CS(=O)(=O)c1ccc(-c2ccc(C[C@@H]3NC(=O)[C@]4(Cc5ccccc5)CCCN(C4)C(=O)/C=C/C(=O)NCC[C@@H](C(=O)NCCOCCN)NC(=O)Cc4ccccc4CNC3=O)cc2)cc1,42000,4200,400,900,3000,3500,27000,1400,600,70000,430,,,,,,,,,
NCCOCCNC(=O)[C@@H]1CCNC(=O)/C=C/C(=O)N2CCC[C@](Cc3ccccc3)(C2)C(=O)N[C@@H](Cc2ccc(-c3ccc(CCCC(=O)O)cc3)cc2)C(=O)NCc2ccccc2CC(=O)N1,> 50000,36000,120,,1800,21000,30000,300,600,> 50000,600,,36000,4000,,30000,,,,
CCOC(=O)CCc1ccc(-c2ccc(C[C@@H]3NC(=O)[C@]4(Cc5ccccc5)CCCN(C4)C(=O)/C=C/C(=O)NCC[C@@H](C(=O)NCCOCCN)NC(=O)Cc4ccccc4CNC3=O)cc2)cc1,> 50000,3700,140,,1200,2300,37000,330,400,> 50000,230,,,1600,,,,,,
"NCCOCCNC(=O)[C@@H]1CCNC(=O)/C=C/C(=O)N2CCC[C@](Cc3ccccc3)(C2)C(=O)N[C@@H](Cc2ccc(-c3ccc4c(c3)OCC4CC(=O)O)cc2)C(=O)NCc2ccccc2CC(=O)N1 (single isomer, unassigned) [B49]",> 10000,> 10000,300,,4000,> 10000,2100,600,1200,> 10000,3000,,,> 10000,,,,4000,1200,3000
COC(=O)CCc1ccc(-c2ccc(C[C@@H]3NC(=O)[C@]4(Cc5ccccc5)CCCN(C4)C(=O)/C=C/C(=O)NCC[C@@H](C(=O)NCCOCCN)NC(=O)Cc4ccccc4CNC3=O)cc2)cc1,50000,3000,110,,900,1200,30000,190,270,> 100000,150,,,1400,,,,,,
NCCOCCNC(=O)[C@@H]1CCNC(=O)/C=C/C(=O)N2CCC[C@](Cc3ccccc3)(C2)C(=O)N[C@@H](Cc2ccc(-c3ccc(CC[N+](=O)[O-])cc3)cc2)C(=O)NCc2ccccc2CC(=O)N1,> 50000,7000,95,,800,2200,> 50000,140,230,> 50000,400,,,1700,,,,,,
